Literature values as cited in publication PMC10021052, “Novel multivalent S100A8 inhibitory peptides attenuate tumor progression and metastasis by inhibiting the TLR4-dependent pathway” (Cancer Gene Therapy, 2023).

Test system: tumor-bearing mice
Set-up: method as in 2 sources, one per row (each row's own in cited_ref): ref [8] = [8]; PMID 26165843; doi:10.1038/onc.2015.211; 8. Deguchi A Tomita T Ohto U Takemura K Kitao A Akashi-Takamura S Eritoran inhibits S100A8-mediated TLR4/MD-2 activation and tumor growth by changing the immune microenvironment Oncogene. 2016 35 1445 ||| ref [4], [8] = [4]; PMID 17128264; doi:10.1038/ncb1507; 4. Hiratsuka S Watanabe A Aburatani H Maru Y Tumour-mediated upregulation of chemoattractants and recruitment of myeloid cells predetermines lung metastasis Nat Cell Biol 2006 8 1369 75 10.1038/ncb150 || [8]; PMID 26165843; doi:10.1038/onc.2015.211; 8. Deguchi A Tomita T Ohto U Takemura K Kitao A Akashi-Takamura S Eritoran inhibits S100A8-mediated TLR4/MD-2 activation and tumor growth by changing the immune microenvironment Oncogene. 2016 35 1445
Details: ref [8]; cited from earlier work

## CCCCCC/C=C\CCCCCCCCCC(=O)N[C@H]1[C@H](OC[C@H]2O[C@H](OP(=O)(O)O)[C@H](NC(=O)CC(=O)CCCCCCCCCCC)[C@@H](OCCCCCCCCCC)[C@@H]2O)O[C@H](COC)[C@@H](OP(=O)(O)O)[C@@H]1OCC[C@@H](CCCCCCC)OC [Eritoran]
  tumor progression in tumor-bearing mice, Eritoran: inhibited tumor growth through immunomodulation and vascular normalization; also recorded: inhibited S100A8-mediated cell migration and tumor progression in tumor-bearing mice

Entries after “also recorded” stand apart in the source; their conditions may differ.
